How the values were obtained:
[1] = tested on: SDMA/HCT116-MTAPdel; experiment: In-cell arginine symmetric dimethylation inhibition (In-cell western, ICW), MTAP-deficient cells; assay type: cell-based; conditions: ratio SDMA IC50 wt / MTAPdel
Procedure: 60 nL of different concentrations of compounds were added to each well using an Echo, and incubated at 37°C, 5% CO2 for 96 hours.
Next, 50 µL of 4% paraformaldehyde solution was added to each well and incubated at room temperature for 20 minutes to fix the cells. The solution in the wells was removed, and each well was rinsed four times with PBS solution containing 0.1% Tween 20 (PBST). To each well was then added 30 µL of ice-cold methanol. After standing at -20°C for 10 minutes, the methanol was removed and the wells washed four times with PBST. 30 µL of Odyssey blocking solution containing 0.5% Tween 20 was added to each well and shaken for 2 hours at room temperature. The blocking solution was removed and 30 µL of primary antibody (Symmetric Di-Methyl Arginine Motif [sdma-RG] MultiMab™ Rabbit mAb mix) diluted at 1:500 in Odyssey blocking solution containing 0.5% Tween 20 was added to each well. The plates were incubated overnight at 4°C, before removing the primary antibody and rinsing each well four times with PBST, 5 minutes per rinse. […]
The sdme-RG and DRAQ5 signals were scanned at 800 nm and 700 nm respectively on a Li-Cor Odyssey instrument and the signal values recorded. The sdme-RG/DRAQ5 ratio was used to calculate the percentage inhibition of arginine symmetric dimethylation (SDMA), and the IC50 value calculated using GraphPad Prism software.

[2] = tested on: HCT116-MTAPdel; experiment: 2D antiproliferative assay (CTG cell viability), MTAP-deficient cells; assay type: cell-based; conditions: ratio IC50 wild type / MTAPdel, antiproliferation
Procedure: HCT116 wild-type and MTAP-deficient cells were cultured in McCoy's 5A medium containing 10% FBS and 1% penicillin-streptomycin, and cultured in a 37°C, 5% CO2 constant temperature incubator. 40 µL of cell suspension was introduced into each well of a 384-well microplate. 40 nL of different concentrations of test compounds were added to each well using an Echo, before culturing in a 37°C, 5% CO2 constant temperature incubator for 7-10 days. 40 µL of CTG solution (Promega, Cat No. G7573) was added to each well and incubated in a 37°C, 5% CO2 constant temperature incubator for 30 minutes in the dark.

[3] = Membrane permeability: Caco-2 assay; assay type: in vitro ADME; conditions: human; Caco-2, Efflux Ratio = Papp(B-A)/Papp(A-B)
Procedure: The membrane permeability of the molecules of the invention was evaluated. […] Efflux Ratio = Papp(B−A) /Papp(A−B) [formula]

Q: Which “Selectivity wt/MTAPdel” value [1] does the source give for C[C@H]1CC[C@H](c2ccc3scnc3c2)N(C(=O)C(=O)Nc2cnc(N)c3c2cnn3C)C1 [Compound P3b] here?
A: 963

Q: What about the “HCT116WT IMTAPdel selectivity” value [2] of the same compound?
A: 138

Q: With C[C@@H]1CC[C@@H](c2ccc3scnc3c2)N(C(=O)C(=O)Nc2cnc(N)c3c2cnn3C)C1 [Compound P3a] as the compound, how does the “HCT116WT IMTAPdel selectivity” value [2] read?
A: 15

Q: For C[C@@H]1CC[C@@H](c2ccc3scnc3c2)N(C(=O)C(=O)Nc2cnc(N)c3c2cnn3C)C1 (racemic) [Compound P3], which efflux ratio [3] is on record?
A: 13

Q: And the “HCT116WT IMTAPdel selectivity” value [2]?
A: 64
